Values of other authors in patent US7135196B2, “Iron compositions” (Vitra Pharmaceuticals Limited, priority 2000, dated 2006).

Settings: given on an empty stomach

Which absorption rate does the source give for ferrous sulphate here?
The absorption rate was 30%.
